Kd data for one substance are collected here from PMC4728187, “A fluorescent approach for identifying P2X1 ligands” (Neuropharmacology, 2015).

The assay has as its target T1, P2X1 receptors (Homo sapiens, UniProt P51575).
T1 sequence (P51575 1-399): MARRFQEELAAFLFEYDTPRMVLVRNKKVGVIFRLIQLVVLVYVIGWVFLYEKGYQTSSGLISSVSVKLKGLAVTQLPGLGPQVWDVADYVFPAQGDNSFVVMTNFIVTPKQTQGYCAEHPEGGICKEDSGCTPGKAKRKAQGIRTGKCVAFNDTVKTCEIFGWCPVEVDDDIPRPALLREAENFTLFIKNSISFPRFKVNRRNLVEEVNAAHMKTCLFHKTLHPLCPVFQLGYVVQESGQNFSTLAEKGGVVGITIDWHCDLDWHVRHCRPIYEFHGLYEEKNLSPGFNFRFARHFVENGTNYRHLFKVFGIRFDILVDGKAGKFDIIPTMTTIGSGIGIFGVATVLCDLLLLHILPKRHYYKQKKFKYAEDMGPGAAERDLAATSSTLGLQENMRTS
In words: Confocal microscopy kinetic analysis of Alexa-647-ATP binding at the cell surface. Set-up: expressed in transfected cells. The conditions noted are these: calculated from kinetic values, Eq. (3); read-out: Kd (Kb) from koff/kon. As for the experimental part:
Kinetic parameters were determined according to the following model of a simple bimolecular binding scheme:(2) L+R⇌koffkonLR where L is the free ligand concentration, R is receptor concentration, LR is the ligand–receptor complex and kon and koff are the microscopic association and dissociation rate constants. In a simple scheme such as this, the equilibrium dissociation constant (Kd) is equal to the ratio of dissociation to association rate constants, such that:(3) Kb=k−1/k+1
According to a one site binding model of the type shown, the observed rates of association and dissociation can be used to estimate k+1 and k−1:(4) 1/τoff=k−1 and(5) 1/τon=k+1[L]+k−1 where τon refers to the rate at which fluorescence increases, τoff refers to the rate that fluorescence decreases and [L] is concentration of the ligand used.
Association was determined by measuring the increase in fluorescence seen at the cell surface following the application of different concentrations of Alexa-647-ATP. Dissociation was measured by 3 rapid washes with PBS on Alexa-647-ATP equilibrated cells. Intracellular and background fluorescence was also routinely monitored as a control.

With Alexa-647-ATP, the Kd is 119 nM.
